The source of these data is patent US20110306503A1, “TEMPLATE-DEPENDENT NUCLEIC ACID POLYMERIZATION USING OLIGONUCLEOTIDE TRIPHOSPHATES BUILDING BLOCKS” (Yeda Research And Development Co. Ltd., priority 1999, published 2011).

Sequences of proteins named here, by UniProt entry; tags and fusion partners are left off. A change or cut given only in a name is not applied to a line headed by its entry. Residues count along the entry.
UniProt P19821, 290-832 limits assumed: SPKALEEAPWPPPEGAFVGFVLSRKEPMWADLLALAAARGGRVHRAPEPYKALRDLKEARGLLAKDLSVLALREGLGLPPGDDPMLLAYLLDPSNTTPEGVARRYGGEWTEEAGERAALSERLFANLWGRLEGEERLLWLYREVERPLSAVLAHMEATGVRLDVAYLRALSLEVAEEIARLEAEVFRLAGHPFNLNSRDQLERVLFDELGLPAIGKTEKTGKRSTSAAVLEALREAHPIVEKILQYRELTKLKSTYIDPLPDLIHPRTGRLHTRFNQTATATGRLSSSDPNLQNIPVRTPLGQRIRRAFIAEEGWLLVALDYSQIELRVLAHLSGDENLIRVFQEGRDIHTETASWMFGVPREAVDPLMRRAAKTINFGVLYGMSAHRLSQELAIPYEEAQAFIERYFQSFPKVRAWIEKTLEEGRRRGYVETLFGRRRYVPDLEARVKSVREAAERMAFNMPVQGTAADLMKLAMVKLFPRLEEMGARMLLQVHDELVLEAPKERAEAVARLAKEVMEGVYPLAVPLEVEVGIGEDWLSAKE
UniProt P04994: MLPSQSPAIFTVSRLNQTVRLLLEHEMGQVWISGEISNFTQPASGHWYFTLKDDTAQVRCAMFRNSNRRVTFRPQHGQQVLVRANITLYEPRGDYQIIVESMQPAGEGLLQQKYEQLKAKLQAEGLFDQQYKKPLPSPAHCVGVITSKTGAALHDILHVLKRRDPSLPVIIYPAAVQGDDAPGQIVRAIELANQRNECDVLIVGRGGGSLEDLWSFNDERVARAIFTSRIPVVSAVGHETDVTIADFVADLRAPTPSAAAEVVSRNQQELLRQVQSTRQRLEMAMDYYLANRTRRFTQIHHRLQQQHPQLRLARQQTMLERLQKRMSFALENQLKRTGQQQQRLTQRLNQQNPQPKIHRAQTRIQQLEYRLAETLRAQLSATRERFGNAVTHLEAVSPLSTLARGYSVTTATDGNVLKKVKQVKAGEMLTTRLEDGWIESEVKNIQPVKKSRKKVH

Assay type in all cases: biochemical
Data set [1] concerns the target T1, truncated version of Taq DNA polymerase (Thermus aquaticus, UniProt P19821).
T1 construct: a truncated version of Taq DNA polymerase (543 amino acids of the C-terminus part); made in house; host or cells: E. coli JM109 (pTTQ vector)
The data set is described as follows: Polymerization assay (template extension, Exo VII digestion, PCR amplification). The protocol: Oligonucleotides (Table 2) used for the polymerization assay were purified by electrophoresis on Urea-PAGE. For the polymerization assay, a truncated version of Taq DNA polymerase (543 amino acids of the C-terminus part), was cloned in the pTTQ vector (Stark, 1987), and expressed (in E. coli JM109) and purified as described (Lawyer et al., 1993).
Template-extension reaction (step I, FIG. 3) includes a polymerization buffer (40 mM Tricine-KOH, pH 8.0; 16 mM KCl; 3.5 mM MgCl2 and 4 μg BSA), 1 pmol T1 template, 1 pmol T7 primer, 20 nM of each of the four dNTP's and 5 units of DNA polymerase in total volume of 20 μl. Where indicated, 3 μM TpT3p replaced the dTTP in the reaction mix. Reaction was incubated for 2 min at 94° C., 5 minutes at 55° C., 30 seconds at 60° C., 30 seconds at 65° C., and then 10 minutes at 72° C.
(§1) Exonuclease-digestion reaction (step II, FIG. 3) included 0.75 units of Exo VII (GibcoBRL), the supplier's buffer and 3 μl of the reaction of step I. Reactions were incubated for 30 minutes at 37° C. and then quenched on ice.
PCR amplification (step III, FIG. 3) included the above described polymerization buffer, additional 2 μg BSA, 1 μl of the reaction of step II, 0.1 mM dNTP's, 0.5 pmol T2 template, and 5 pmol of both, T7 and B primers. The reactions, in 20 μl, were performed in glass capillaries on RapidCycler (Ideho Technology), using thermal steps of: 1 minute at 94° C., followed by 30 cycles of 5 seconds at 94° C., 15 seconds at 50° C.; and 25 seconds at 72° C. The PCR products were separated on 1.4% agarose gels, and visualized by UV light following ethidium bromide staining.
Incorporation of TpT3p by template-dependent polymerization was tested in a very sensitive assay of three steps, as detailed in Example 3 and FIG. 3, and exemplified in FIG. 4. In step I, a template containing three (T1-3), four (T1-4) or five (T1-5) runs of deoxyadenosine (A), followed by a non-A containing region was extended from a specific oligonucleotide primer (T7) in the presence of a DNA polymerase and the nucleotide mixtures described in Example 3. In step II, the polymerization products were treated by a single-strand specific exonuclease, so that non-extended single-strand regions in T1 were removed. Only products that were extended in step I, but not digested in step II, could be amplified in step III in the presence of oligonucleotides T7, B and T2. This assay is sensitive enough to identify even a small amount of molecules that were extended in step I, and can be used as a general means to amplify the capacity of polymerases to introduce a nucleotide analog by template extension.

In the next data set the target is T2, Exo VII (Escherichia coli, UniProt P04994).
T2 construct: purchased GibcoBRL
Kind of data set: Test whether TpT3p inhibits Exo VII in step II of the polymerization assay. Particulars: 3 μM; reactants of step I without polymerase; absence of any PCR products. The protocol:
as §1
In order to test the possibility that TpT3p inhibits Exo VII in Step II of the polymerization assay, and therefore that the ss-DNA regions for subsequent amplification in step III were retained, an additional experiment performed containing the reactants of step I (but without polymerase added), and 3 μM TpT3p.

The next data set addresses T3, Taq DNA polymerase (Thermus aquaticus, UniProt P19821).
T3 construct: a truncated version of Taq DNA polymerase (543 amino acids of the C-terminus part); made in house; host or cells: E. coli JM109 (pTTQ vector)
The data set is described as follows: Labeled-primer extension assay. On the procedure:
The oligonucleotides that were used for this assay are detailed in Table 4 before. The reactions of labeled-primer extension included: polymerization buffer (40 mM Tricine-KOH, pH 8.0; 16 mM KCl; 5 mM MgCl2 and 4 μg BSA), 1 pmol template, 0.2 pmol of the p201 primer (labeled at its 5′ with P^32-γ-ATP using T4 polynucleotide kinase), 1 μM of the indicated dNTP's and 50 μM of the indicated di- or trinucleotide triphosphates in a total volume of 20 μl. The reactions were incubated for 5 minutes at 45° C., then 5 units of Taq DNA polymerase (see Example 3 for details) were added, followed by 20 minutes at 72° C. The reactions were terminated with 15 μl of stop solution (95% formamide, 20 mM EDTA and 0.05% bromophenol blue). Three μl were then separated on Urea-PAGE, and the radiolabeled DNA-bands were detected by phosphoimaging.

With “thymidylyl-3′-5′-thymidine dinucleotide triphosphate (DNA TT; DNA, phosphodiester; triphosphate, position not given here, further chemistry not fully specified) [TpT3p]”, the “PCR-amplification products in step III (template-dependent incorporation), template with even A-run” value in data set [1] (3 μM TpT3p replaced dTTP in step I, template T1-4 (four A's)) is recorded as “only with template T1-4”. In addition, the “PCR-amplification products in step III (template-dependent incorporation), templates with odd A-runs” value in data set [1] (3 μM TpT3p replaced dTTP in step I, templates T1-3 and T1-5) is reported as “no PCR products”. Also, in data set [1] (albeit with lower yield), the “concentration that support primer extension” value is on record as 50 nM. The “concentration supporting primer extension relative to that found for dTTP” value in data set [1] (fold higher than dTTP) is given as “more than 100 fold”. Moreover, the “inhibition of Exo VII” value with Exo VII is “not inhibited”. Besides, the “template-dependent incorporation in a mix with dCTP and dATP” value with Taq DNA polymerase (template T24, FIG. 7 lanes 4 and 5) is given as “utilized”. The “incorporation of dinucleotide compared with trinucleotide” value in the data set with Taq DNA polymerase (template T24, with dCTP and dATP, FIG. 7 lanes 4 and 5) is on record as “incorporated much better than the trinucleotide”. Besides, the “template-dependent incorporation onto 3′ end of labeled primer p201” value with Taq DNA polymerase (templates T80 and T81, 50 μM dinucleotide triphosphates, FIG. 6 lanes 3-7) was “correct incorporation”. Also, in the data set with Taq DNA polymerase (templates T80 and T81, FIG. 6 lanes 3-7 vs lane 2), the “efficiency of incorporation compared to the natural dNTP's” value is “lower efficiency”.
